# Yeast mating assay B: variants of the scFv Ab-14

The measurements come from Li et al. 2023 (doi:10.1038/s41467-023-39022-2) through the FLAb antibody collection.

All variants were tested on one target, the spike HR2 peptide PDVDLGDISGINAS (SARS-CoV-2).

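The starting antibody came from a phage panning campaign against this peptide. This is the validation round: designs drawn from the data on random variants, tested in the same kind of assay. Their group label is 14H_GP_HC (GP: Gaussian process model; HC: hill climbing; a sequence that several methods proposed may carry one label only). AlphaSeq pools MATa yeast showing the antibodies with MATalpha yeast showing the peptide. Pairs that bind mate more often; barcode pairs of the diploids are counted by sequencing. Scores were corrected for input abundance and mapped to Kd with protein pairs of known affinity run in the same pool. The assay was run in six technical replicates.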

Ab-14 is the parent antibody, in scFv form: VH, then a (GGGGS)3 linker, then VL. The light chain is unchanged in all variants.
VH: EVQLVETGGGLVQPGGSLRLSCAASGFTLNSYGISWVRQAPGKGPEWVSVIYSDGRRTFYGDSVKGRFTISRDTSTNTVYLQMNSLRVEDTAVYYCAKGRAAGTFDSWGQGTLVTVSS
VL: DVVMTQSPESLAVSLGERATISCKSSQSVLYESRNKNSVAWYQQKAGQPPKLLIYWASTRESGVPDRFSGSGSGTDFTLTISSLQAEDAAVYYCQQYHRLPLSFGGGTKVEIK

Positions count from residue 1 of the parent VH; S31E puts E in place of S. Values are log10 of the apparent Kd in nM; lower means stronger binding. A mean of the replicates is given; it leaves out those without a signal. "nd" means that the variant was in the library but no mating with the target was seen in that replicate; the authors take this as a sign of poor binding, and no number exists.

changes,log10 Kd (nM) by replicate,"log10 Kd (nM), mean",empty controls
S31E+R56K+G61S+D106T,0.81 / 1.45 / 0.74 / 1.14 / 0.39 / 1.09,0.94,0 of 18
T28P+G61D+R100K+A101L,1.05 / 0.63 / 1.28 / 1.22 / 0.96 / 1.64,1.13,2 of 18 (2.31)
T28D+A101T+T104A+D106K,nd / nd / nd / nd / nd / nd,nd,1 of 18 (-0.25)
G26K+T28D+S31E+G61V+A101C,nd / 1.04 / nd / nd / nd / nd,1.04,0 of 18
S31E+G61T+R100H,0.67 / 0.09 / -0.08 / 0.18 / -0.09 / 0.25,0.17,1 of 18 (3.77)
T28Q+R100N,2.01 / 1.01 / 0.96 / 1.23 / 1.54 / 2.24,1.50,0 of 18
S31E+A101M+S107L,nd / nd / nd / nd / nd / nd,nd,0 of 18
S31N+G61D+A101L,nd / 1.14 / 1.99 / 1.14 / 0.87 / 1.48,1.32,0 of 18
T28S+S31E+G61C+R100G+S107R,1.79 / 1.23 / 1.77 / 1.60 / 1.93 / nd,1.66,1 of 18 (2.09)
F27E+S31E+G103V+S107Q,nd / nd / nd / nd / nd / nd,nd,0 of 18
S31E+G61S+R100Q+A101S,nd / nd / nd / nd / nd / 2.93,2.93,0 of 18
G61S+R100S+A101T+S107V,-0.12 / -1.03 / -0.87 / -0.90 / -0.78 / -0.56,-0.71,0 of 18
N30D+G61I+S107V,nd / nd / 0.25 / 0.67 / 0.83 / nd,0.58,0 of 18
G61S+R100A+A101D,0.43 / 0.63 / 0.34 / 0.67 / 0.50 / nd,0.51,0 of 18
F59A+G61H,2.52 / 0.56 / 0.44 / 1.13 / 2.54 / 1.57,1.46,0 of 18
A101V+T104S+D106T+S107V,nd / nd / 2.13 / nd / 3.13 / 2.15,2.47,0 of 18
S53A+S63Q+D106T,nd / nd / nd / nd / nd / nd,nd,0 of 18
S31E+G61S+R100F+S107L,-0.14 / 0.31 / -0.01 / -0.02 / 0.23 / 0.33,0.12,0 of 18
T28K+G61D+R100Q,nd / nd / nd / nd / nd / nd,nd,0 of 18
T28S+S31E+G61K+R100P+S107R,nd / nd / nd / nd / 1.89 / nd,1.89,0 of 18
S31E+G61R+S63D+A101T,-0.09 / -0.22 / -0.34 / -0.27 / -0.26 / -0.20,-0.23,1 of 18 (1.74)
F27N+G61T+A101T,-0.38 / 0.43 / 0.89 / 0.11 / -0.32 / 0.76,0.25,1 of 18 (0.42)
S31E+G61D+A101M,0.60 / 0.18 / 0.28 / -0.57 / -0.36 / -0.08,0.01,0 of 18
T28W+S31E+S107V,0.96 / 0.88 / nd / 0.90 / 1.81 / 1.17,1.14,0 of 18
T28V+S31E+S107Q,1.98 / 2.31 / 2.70 / 2.80 / 1.94 / 2.13,2.31,0 of 18
S31E+F59M+G61T+A101S,1.27 / 1.70 / 1.15 / 2.21 / 0.97 / 1.36,1.44,0 of 18
G26S+S53A+R56K+D106K,nd / nd / nd / nd / nd / nd,nd,0 of 18
G61T+R100L+A101F,1.38 / nd / 2.16 / 1.54 / 1.26 / 1.90,1.65,0 of 18
T28W+S31D+F59Y,nd / nd / nd / nd / 1.70 / nd,1.70,0 of 18
S31D+T58V+F59Y+G61I,2.18 / 2.34 / 1.21 / 1.02 / 1.53 / 1.16,1.57,0 of 18
S31D+F59Y+D62E,nd / 1.00 / nd / 0.55 / 0.56 / nd,0.71,0 of 18
S31E+S53A+A101L,0.47 / -0.20 / -0.22 / -0.63 / -0.67 / -0.15,-0.23,0 of 18
S31E+Y32F+G61T+A101L,0.44 / 1.47 / -0.21 / 0.54 / 1.14 / 0.87,0.71,0 of 18
S31D+F59Y+D106V,nd / nd / nd / nd / nd / nd,nd,0 of 18
T28D+D106N+S107Q,nd / nd / nd / 0.89 / nd / nd,0.89,0 of 18
R56M+R100W+A101T+D106W,nd / 0.51 / nd / nd / -0.08 / nd,0.21,0 of 18
S31E+G61A+S63A+A101C,nd / 1.21 / nd / nd / nd / nd,1.21,0 of 18
T28Q+S31D+A101H+D106I,nd / nd / nd / nd / nd / nd,nd,0 of 18
S31E+G61T+A101M+D106I,nd / nd / nd / nd / nd / nd,nd,0 of 18
T28S+S53A+S63N+R100E+D106K,-0.38 / -0.09 / -0.10 / -0.31 / -0.42 / -0.22,-0.25,1 of 18 (2.63)
S31E+G61S+R100H+S107T,0.28 / 0.27 / -0.03 / -0.32 / -0.16 / 0.00,0.00,0 of 18
S31D+F59M+G61T,0.43 / 1.46 / 1.24 / 1.19 / 1.03 / 1.02,1.06,0 of 18
T28W+S31E+G61A+S107E,nd / 1.24 / 1.30 / nd / nd / 1.42,1.32,0 of 18
T28V+S31E+F59Q+G61I,1.72 / 1.95 / nd / nd / 2.66 / 0.54,1.72,0 of 18
R56V+G61S+R100W,nd / nd / nd / 1.12 / nd / 0.34,0.73,0 of 18
R56Q+G61S+G103V,nd / nd / nd / nd / nd / nd,nd,0 of 18

Top 3 of the variants detected in all replicates, tightest first:

changes,log10 Kd (nM) by replicate,"log10 Kd (nM), mean",empty controls
G61S+R100S+A101T+S107V,-0.12 / -1.03 / -0.87 / -0.90 / -0.78 / -0.56,-0.71,0 of 18
T28S+S53A+S63N+R100E+D106K,-0.38 / -0.09 / -0.10 / -0.31 / -0.42 / -0.22,-0.25,1 of 18 (2.63)
S31E+S53A+A101L,0.47 / -0.20 / -0.22 / -0.63 / -0.67 / -0.15,-0.23,0 of 18

A sequence measured in both rounds can read differently, since the two assays cover different ranges. The authors averaged sequences with at least three values out of six and counted those with two or fewer as poor binders. The parent sequence was in this pool as ten entries: three were never detected, three once, and four in most replicates, with averages from 0.34 to 2.37. Background: pairings of all heavy chain designs with three empty control strains gave a value in 1% of cases (median 2.08, 5th percentile 0.84). Values in that range, when seen in few replicates, are hard to tell from nonspecific mating. Also given: how often the same scFv was detected with the empty control strains, with their mean in brackets.